Screens from PubChem BioAssay.
Rows were chosen to be rich in hits. Some 2.2% of all compounds tested hit in one or more screens of this group.
Nrf2 block = blocks Nrf2 signaling. A549 ARE-Fluc reporter, luciferase luminescence, 18-24 h. Potency, µM (highest dose often 46 µM), for the others: top-dose activity change, negative = inhibition, usual class: inhibitors. 2.1% of 360,000 active; note: potency is the fitted concentration of half-maximal effect; % is set by controls: 0 for no effect and ±100 for the full control effect; nearly all actives have a fitted effect of over 60% in size
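Nrf2 activity is the BugLite luminescence, read 15 min after reagent at room temperature, following CellTiter-Fluor cytotoxicity readout (30 min, 37C). Compound titrations were applied for 18-24 h to 5000 A549 ARE_Fluc cells/well in 5% FBS OPTI-MEM.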
A549 viability = A549 cytotoxicity, counter-screen for Nrf2 inhibitors; 0.16% of 390,000 active; Potency, µM (top dose mostly 46 µM), for inactives: at the top dose activity change, negative = cytotoxicity, hits mostly inhibitors; A549 ARE-Fluc cells, CellTiter-Fluor viability, 18-24 h; note: potency is the fitted concentration of half-maximal effect; % is set by controls: 0 for no effect and ±100 for the full control effect
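A549 ARE_Fluc cells in 5% FBS OPTI-MEM were exposed to compounds in concentration-response for 18-24 h at 37 deg C. Viability was read by CellTiter-Fluor fluorescence (Ex 405/Em 525) after 30 min, before the luciferase read.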
miR-21 reporter = miR-21 reporter, rising signal; HeLa miR-21 FLuc reporter, luciferase, 48 h; Potency, µM (top dose mostly 38.3 µM), without a hit: at the highest dose reporter change, positive = more light; 340,000 tested, under 10 active; active = well fitted rising curve with a large enough effect; inconclusive = small, poorly fitted or top-dose-only effect; inactive = no such curve, though single readings can be large or run the other way;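 further: % of control where 0% means no effect; miR-21 action dims this reporter so a rising signal means less miR-21 action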
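Using DMEM plus 10% FBS, HeLa miR-21-FLuc cells are incubated with test compounds (final up to about 40uM) for 48 hours; firefly luciferase signal is then imaged following reagent-mediated lysis.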
B2AR arrestin = agonists driving beta-arrestin recruitment to human beta2-adrenergic receptor; P07550; beta-arrestin recruitment to beta2AR, cell-based reporter; Potency, µM (highest dose often 46.1 µM), inactives show top-dose activation, hits mostly activators; 0.02% of 330,000 active;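 note: potency is the fitted concentration of half-maximal effect; 0% = DMSO controls and full agonism = EC100 isoproterenol or metaproterenol; nearly all actives have a fitted effect of over 65% in size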
Nrf2 ARE act = activates Nrf2 signaling; 0.31% of 410,000 active; AREc32 ARE-luciferase reporter (MCF7-derived line), luminescence, 24 h; Potency, µM (series often up to 46.1 µM), for inactives: top-dose activation, usual class: activators; note: potency is the fitted concentration of half-maximal effect; % of control where 0% means no effect; nearly all actives have a fitted effect of over 65% in size
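AREc32 cells carrying an ARE-driven firefly luciferase, 1000 cells/well in OPTI-MEM with 5% FBS, dosed after overnight attachment and incubated 24 hr at 37 deg C. Steady-Glo luminescence read after 30 min at RT.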
Active calls of the source: *; ? = inconclusive; / = no result given; [ ] = another dose, or the depositor's remark. Calls come from the whole dose curve; as a rule, active = well fitted curve in the direction sought with a large enough effect; inconclusive = small, poorly fitted or top-dose-only effect, or another doubt; inactive = no such curve, though single readings can be large; an effect the other way counts as inactive or inconclusive.

Screens by letter – A = Nrf2 block; B = A549 viability; C = miR-21 reporter; D = B2AR arrestin; E = Nrf2 ARE act
1	COC(=O)C1=C(C)NC2=C(C(=O)CC(C)(C)C2)C1c1cn(Cc2ccc(Br)cc2)nc1-c1ccccc1 (stereo unspecified)
  A: 12.6µM*	B: -22.0%	C: 15.7%	D: -0.2%	E: -0.7%
2	Cc1ccc(NC(=O)Cn2c(=O)n(CCCCC(=O)NCc3ccccc3Cl)c(=O)c3ccccc32)cc1
  A: 10.5%	B: -2.3%	C: -2.4%	D: /	E: -0.5%
3	O=C(OCC#CCSc1nnc(-c2cccc3ccccc23)o1)c1ccsc1
  A: ?	B: -3.9%	C: /	D: /	E: /
4	Cn1nc(-c2ccc(OCC(=O)Nc3cccnc3)cc2)c2ccccc2c1=O
  A: ?	B: 1.3%	C: 14.0%	D: -0.5%	E: 3.0%
5	Cn1nc(-c2ccc(C(=O)Nc3ccc(F)cc3)cc2)c2ccccc2c1=O
  A: 18.4µM*	B: -4.1%	C: -1.3%	D: -0.1%	E: 3.1%
6	Cn1nc(-c2ccc(C(=O)Nc3cccc(Cl)c3)cc2)c2ccccc2c1=O
  A: 6.51µM*	B: -20.9%	C: -4.9%	D: -0.1%	E: -0.4%
7	Cn1nc(-c2ccc(OCC(=O)Nc3cccc(C(F)(F)F)c3)cc2)c2ccccc2c1=O
  A: 25.9µM*	B: ?	C: 13.1%	D: /	E: 0.2%
8	O=C(NCC(c1ccccc1)c1ccccc1)c1nn(-c2ccccc2F)nc1CO
  A: ?	B: -0.5%	C: 26.3%	D: /	E: -0.9%
9	CCOc1ccc(Nc2oc(/C=C/c3cc(OC)c(OC)c(OC)c3)nc2C#N)cc1
  A: -0.8%	B: -14.4%	C: 28.4%	D: /	E: 15.3%
10	Cc1cc(NC(=O)CS(=O)(=O)c2cn(Cc3ccccc3Cl)c3ccccc23)no1
  A: 25.9µM*	B: -16.6%[1.84 µM]	C: 10.3%	D: 0.2%	E: -0.5%
11	COc1ccc(-c2noc(CNC(=O)COc3cccc(C)c3C)n2)cc1
  A: -1.8%	B: 8.6%	C: -7.8%	D: /	E: 1.1%
12	CC(=O)Nc1ccc(S(=O)(=O)NCCSCc2ccccc2Cl)cc1
  A: 10.3µM*	B: -0.8%	C: 12.5%	D: -0.5%	E: -0.4%
13	O=C(NCc1ccccc1Cl)c1ccc2c(c1)N(Cc1ccccc1)C(=O)c1ccccc1S2
  A: /	B: 12.9%	C: -16.6%	D: /	E: -0.4%
14	COc1cccc(C(=O)NCC(c2ccc(N(C)C)cc2)N2CCc3ccccc32)c1OC (stereo unspecified)
  A: /	B: -0.2%	C: -6.2%	D: /	E: -0.2%
15	COc1ccc(NC(=O)Cn2c(=O)nc(-c3ccccc3)c3ccccc32)cc1OC
  A: /	B: 0.0%	C: 2.7%	D: /	E: 2.3%
16	Cc1cc(Br)ccc1NC(=O)CN(C)C(=O)C1CCN(c2ncnc3sc(C)c(C)c23)CC1
  A: ?	B: 20.6µM*	C: /	D: /	E: -0.3%
17	Cc1sc2ncnc(N3CCC(C(=O)NNC(=O)COc4ccccc4Cl)CC3)c2c1C
  A: ?	B: 0.0%	C: /	D: 0.0%	E: -1.1%
18	Cc1sc2ncnc(N3CCC(C(=O)NNC(=O)c4ccccc4Cl)CC3)c2c1C
  A: 16.4µM*	B: -5.9%	C: 29.0%	D: 0.4%	E: -1.1%
19	Cc1cccc(C)c1NC(=O)CN(C)C(=O)C1CCN(c2ncnc3sc(C)c(C)c23)CC1
  A: ?	B: -2.0%	C: /	D: -0.6%	E: 0.3%
20	CC(C)c1nnc(NC(=O)c2c(O)c3cccc4c3n(c2=O)CCC4)s1
  A: 16.4µM*	B: ?	C: -3.8%	D: -0.6%	E: 1.9%
21	COc1ccc(C2C=C(c3ccccc3)Nc3nc(NS(=O)(=O)c4ccc(C)cc4)nn32)cc1 (stereo unspecified)
  A: 18.4µM*	B: -0.8%	C: -11.8%	D: /	E: -0.6%
22	Cn1c(NCc2ccccc2)nc2c1c(=O)n(Cc1ccc(Br)cc1)c(=O)n2C
  A: 14.6µM*	B: -12.3%	C: -6.3%	D: -0.4%	E: 2.9%
23	Cc1ccc(Oc2nc3c(c(=O)n(Cc4ccccc4)c(=O)n3C)n2C)cc1C
  A: 18.4µM*	B: 1.4%	C: ?	D: /	E: -1.3%
24	Cn1c(=O)c2c(nc(NCc3ccc4c(c3)OCO4)n2Cc2ccc(F)cc2)n(C)c1=O
  A: 23.1µM*	B: -26.7%	C: 18.7%	D: -0.3%	E: 0.1%
25	Cc1ccc(Oc2nc3c(c(=O)n(Cc4ccccc4Cl)c(=O)n3C)n2C)cc1C
  A: -2.4%	B: -2.7%	C: -5.0%	D: /	E: -0.5%

Brought forward from above: 3 compounds, followed by the next part.
Screens by letter – A = Nrf2 block; B = A549 viability; C = miR-21 reporter; D = B2AR arrestin; E = Nrf2 ARE act
23	Cc1ccc(Oc2nc3c(c(=O)n(Cc4ccccc4)c(=O)n3C)n2C)cc1C
  A: 18.4µM*	B: 1.4%	C: ?	D: /	E: -1.3%
24	Cn1c(=O)c2c(nc(NCc3ccc4c(c3)OCO4)n2Cc2ccc(F)cc2)n(C)c1=O
  A: 23.1µM*	B: -26.7%	C: 18.7%	D: -0.3%	E: 0.1%
25	Cc1ccc(Oc2nc3c(c(=O)n(Cc4ccccc4Cl)c(=O)n3C)n2C)cc1C
  A: -2.4%	B: -2.7%	C: -5.0%	D: /	E: -0.5%
26	Cn1c(=O)n(Cc2ccccc2)c(=O)c2c1nc1n2CCCN1CCc1ccccc1
  A: 29.1µM*	B: -25.3%	C: 9.6%	D: -0.7%	E: -0.4%
27	Cn1c(NCc2ccco2)nc2c1c(=O)n(Cc1ccc(Br)cc1)c(=O)n2C
  A: ?	B: -1.3%	C: 3.0%	D: -0.2%	E: 27.6%
28	Cc1ccc(S(=O)(=O)N2CCN(c3nc(-c4cnccn4)nc4ccccc34)CC2)cc1
  A: -10.8%	B: 1.9%	C: /	D: /	E: /
29	COc1ccc(CNc2nc3c(c(=O)n(Cc4ccc(Br)cc4)c(=O)n3C)n2C)cc1
  A: 18.4µM*	B: -24.9%	C: -3.7%	D: -0.9%	E: -0.3%
